Data from patent US20090247465A1, “Novel Use of Bivalirudin in the Treatment of Acute Coronary Syndrome” (priority 2008, published 2009).

Test system: patients with moderate and high risk NSTE-ACS
Assay: ACUITY analysis: clinical outcomes at 30 days, consistent UFH/enoxaparin plus GP IIb/IIIa inhibitor vs switch to bivalirudin, and antithrombin-naïve patients
Format: in vivo, human
Details: for Major bleeding, number of patients / Major bleeding, rate / Transfusion, number of patients / Transfusion, rate / Major bleeding, RR / Transfusion, RR: 30 days
Excerpt: A total of 4215 patients received prior antithrombin therapy with either UFH or enoxaparin before randomization. Of these, 2137 were randomized to receive the same antithrombin plus a GP IIb/IIIa inhibitor (consistent), while 2078 patients were randomized to receive bivalirudin (switch). There were 2889 patients naïve to antithrombin therapy at randomization, and of these, 1462 patients were randomized to UFH/enoxaparin plus a GP IIb/IIIa inhibitor and 1427 to bivalirudin monotherapy (FIG. 1).
At 30 days, there was no difference in composite ischemia between the two groups: 6.9% for patients switched to bivalirudin vs. 7.4% for patients remaining on consistent UFH/enoxaparin ([RR 0.93; 0.75-1.16], p=0.52). […] Transfusions were also lower in the patients switched to bivalirudin vs. patients remaining on consistent UFH/enoxaparin (1.5% vs. 2.6% [RR 0.60; 0.39-0.92], p=0.02). (Table 2, FIG. 2).
Tables 3a and 3b show clinical outcomes according to type of heparin therapy (UFH or enoxaparin) in patients on prior antithrombin therapy and in patients naive to antithrombin therapy. In patients switched from either UFH or enoxaparin to bivalirudin, there were similar rates of composite ischemia and significant reductions in major bleeding; in patients naive to antithrombin therapy, there were similar rates of composite ischemia and significant reductions in major bleeding for those randomized to bivalirudin vs. either UFH or enoxaparin plus a GP IIb/IIIa inhibitor.

[1] = High Risk, naïve to antithrombin therapy
[2] = High Risk, naïve to antithrombin therapy, bivalirudin vs UFH/Enoxaparin
[3] = High Risk, prior antithrombin therapy, consistent vs switch
[4] = High Risk, prior antithrombin therapy, switch bivalirudin vs consistent UFH/Enoxaparin
[5] = PCI, naïve to antithrombin therapy
[6] = PCI, naïve to antithrombin therapy, bivalirudin vs UFH/Enoxaparin
[7] = PCI, prior antithrombin therapy, consistent vs switch
[8] = PCI, prior antithrombin therapy, switch bivalirudin vs consistent UFH/Enoxaparin
[9] = all patients, naïve to antithrombin therapy
[10] = all patients, naïve to antithrombin therapy, bivalirudin vs UFH/Enoxaparin
[11] = all patients, prior antithrombin therapy, consistent vs switch
[12] = all patients, prior antithrombin therapy, consistent vs switch, listed as bivalirudin
[13] = all patients, prior antithrombin therapy, switch bivalirudin vs consistent UFH/Enoxaparin
[14] = naïve to antithrombin therapy, bivalirudin vs UFH
[15] = naïve to antithrombin therapy, bivalirudin vs enoxaparin
[16] = prior UFH: consistent UFH vs switch from UFH to bivalirudin
[17] = prior UFH, switch bivalirudin vs consistent UFH
[18] = prior enoxaparin: consistent enoxaparin vs switch from enoxaparin to bivalirudin
[19] = prior enoxaparin, switch bivalirudin vs consistent enoxaparin

Q: What does the source list for CC[C@H](C)[C@H](NC(=O)[C@H](CCC(=O)O)NC(=O)[C@H](CCC(=O)O)NC(=O)[C@H](Cc1ccccc1)NC(=O)[C@H](CC(=O)O)NC(=O)CNC(=O)[C@H](CC(N)=O)NC(=O)CNC(=O)CNC(=O)CNC(=O)CNC(=O)[C@@H]1CCCN1C(=O)[C@H](CCCNC(=N)N)NC(=O)[C@@H]1CCCN1C(=O)[C@H](N)Cc1ccccc1)C(=O)N1CCC[C@H]1C(=O)N[C@@H](CCC(=O)O)C(=O)N[C@@H](CCC(=O)O)C(=O)N[C@@H](Cc1ccc(O)cc1)C(=O)N[C@@H](CC(C)C)C(=O)O [Bivalirudin, bivalirudin]?
A: Major bleeding, number of patients [1]: 25; Major bleeding, rate [1]: (3.1%); Transfusion, number of patients [1]: 8; Transfusion, rate [1]: (1.0%); Major bleeding, RR [2]: 0.53; Transfusion, RR [2]: 0.37; Major bleeding, number of patients [3]: 53; Major bleeding, rate [3]: (3.5%); Transfusion, number of patients [3]: 30; Transfusion, rate [3]: (2.0%); Major bleeding, RR [4]: 0.54; Transfusion, RR [4]: 0.67; Major bleeding, number of patients [5]: 22; Major bleeding, rate [5]: (2.6%); Transfusion, number of patients [5]: 8; Transfusion, rate [5]: (1.0%); Major bleeding, RR [6]: 0.46; Transfusion, RR [6]: 0.37; Major bleeding, number of patients [7]: 45; Major bleeding, rate [7]: (3.5%); Transfusion, number of patients [7]: 23; Transfusion, rate [7]: (1.8%); Major bleeding, RR [8]: 0.52; Transfusion, RR [8]: 0.63; Major bleeding, number of patients [9]: 36; Major bleeding, rate [9]: (2.5%); Transfusion, number of patients [9]: 15; Transfusion, rate [9]: (1.1%); Major bleeding, RR [10]: 0.52; Transfusion, RR [10]: 0.44; Major bleeding, number of patients [11]: 59; Major bleeding, rate [11]: (2.8%); Transfusion, number of patients [11]: 32; Transfusion, rate [11]: (1.5%); Major bleeding, rate [12]: 2.8%; Transfusion, rate [12]: 1.5%; Major bleeding, RR [13]: 0.49; Transfusion, RR [13]: 0.60; Major bleeding, RR [14]: 0.54; Transfusion, RR [14]: 0.41; Major bleeding, RR [15]: 0.51; Transfusion, RR [15]: 0.47; Major bleeding, number of patients [16]: 37; Major bleeding, rate [16]: (2.8%); Transfusion, number of patients [16]: 23; Transfusion, rate [16]: (1.8%); Major bleeding, RR [17]: 0.44; Transfusion, RR [17]: 0.63; Major bleeding, number of patients [18]: 22; Major bleeding, rate [18]: (2.9%); Transfusion, number of patients [18]: 9; Transfusion, rate [18]: (1.2%); Major bleeding, RR [19]: 0.58; Transfusion, RR [19]: 0.52; reduction in major bleeding (switching from UFH or enoxaparin to bivalirudin monotherapy vs remaining on UFH/enoxaparin): ~50%
